From US12239719B2, “Fluorochemical targeted therapies” (MT RESEARCH, LLC, priority 2016, dated 2025)
Read-outs that look alike come from different tables or passages of the source.

Experiments:
[1] = system: Tumors (HCT116); test: Ex vivo Pearl imaging of removed tumors and tissues, tumor to liver ratio; format: in vivo; conditions: mice n=3
Method: Tumors (HCT116) and other tissues were then removed from the mice (n=3) and the tumors and tissues were subjected to ex vivo Pearl® imaging. The tumor to liver ratio for each tumor was calculated.

[2] = system: HCT 116 tumor; test: In vivo Pearl imaging, tumor to background ratio; conditions: HCT 116 tumor-bearing mice, n=3, tail vein 200 μg cetuximab-IRDye-800CW, day 3
Method: HCT 116 tumor-bearing mice (n=3) were injected via tail vein with 200 μg of cetuximab-IRDye®-800CW (1) with 30% perflubron as an emulsion (PFCE) (100 μL of cetuximab-IRDye® 800CW at 2 mg/ml was combined with and 100 μL of 60% Perflubron emulsion to make it a 30% solution of Perflubron emulsion), or (2) without PFCE, in a total volume of 200 μL. The mice were then subjected to in vivo imaging at day 3 post-injection using a Pearl® Trilogy Small Animal imaging System (LI-COR Biosciences, Lincoln, NE). The tumor to background ratio (TBR) for each tumor was calculated.

[3] = system: SKOV-3/luc tumors; conditions: cited from earlier work

Cetuximab-IR800 (w/out PFCE): cetuximab labeled with near infrared dye IRDye 800CW, given without perflubron emulsion
TBR at 3 days post-injection (Ex Vivo Tumor to Liver Ratio) [1]: 2.5 | TBR at 3 days post-injection (In Vivo TBR) [2]: 3.6

IR700 conjugated with trastuzumab: IR700 near infrared dye conjugated with trastuzumab (Sato and coworkers)
relative luminescence units (RLU) ([3]; by day 14 post light treatment): recovered to post-treatment levels | relative luminescence units (RLU) ([3]; day 4 post light treatment (100 J/cm2 NIR), compared to NIR-treated mice): lower relative luminescence units
